This is an account of results in PubChem BioAssay AID651820 (National Center for Advancing Translational Sciences (NCATS), 2012).

SMILES strings stand for the structures. The list shows a part of the results, in another mix than the full data. Some of these compounds have results that are not shown, active ones among them. Records with an inconclusive call do not appear. Calls of active or inactive are those of the source. The call rests on the fitted dose curve; in most records, active means well fitted inhibition curve with a large enough effect; inconclusive means small, poorly fitted or top-dose-only effect, or another doubt; inactive means no such curve, though single readings can be large or run the other way.
On the % scale 0 is the no-effect control and ±100 the full control effect.

A short description of the assay: qHTS Assay for Inhibitors of Hepatitis C Virus (HCV). The conditions noted are these: Huh7.5.1 HCVcc-Cre (HCVcc is cell-culture hepatitis C virus) infection, luciferase reporter, 44 h; at 41.8 µM (top of the series). An excerpt:
Hepatitis C virus (HCV) infects about 200 million people in the world. Many infected people progress to chronic liver disease including cirrhosis with a risk of developing liver cancer. To date, there is no effective vaccine for hepatitis C. Current therapy based on interferon is only effective in about half of the patients and is associated with significant adverse effects. The fraction of people with HCV who can complete a successful treatment is estimated to be no more than 10 percent. Recent development of direct-acting antivirals against HCV, such as protease and polymerase inhibitors, is promising but still requires combination with peginterferon and ribavirin for maximal efficacy. In addition, these agents are associated with high rate of resistance and many have significant side effects. Due to the lack of a culture system for infectious HCV, the search for new HCV drugs has been greatly hampered. […]
The assay will start with plating 1,000 cells/well in 3 µL volume and culture for 4 h. […] A volume of 4.5 µL luciferase substrates will be added to each well and the plates will be incubated at room temperature for 15 min. and then read for 15 sec. for the luciferase activity
In general terms: qHTS replaces the single test concentration by a dilution series.
Turning to `C=CCN1CCN(CCOC(=O)C(O)(c2ccccc2)c2ccccc2)CC1`, the activity change, negative = inhibition is inactive: 11.9%. `CC(C)N1C(=O)CC2(CCN(CCOC(=O)C(O)(c3ccccc3)c3ccccc3)CC2)C1=O`: the activity change, negative = inhibition is inactive: 12%.
